Results from US6407058B1, “Modifying the permeability of physiological barriers” (Eisai Co., Limited, priority 1996, dated 2002).

Test system: p100/p120
Experiment: p100/p120 electrophoretic mobility, primary pig brain endothelial cells (PBECs)
Type: cell-based
Conditions: for mobility of p100/p120: 10 minutes
Description: The mobility of p100 and p120 during electrophoresis is also altered by PDB-treatment in endothelial cells. The p100/p120 proteins from human umbilical vein endothelial cells (HUVECs), bovine aortic endothelial cells (BAECs) and primary pig brain endothelial cells (PBECs) were all affected by PDB-treatment. Cells were treated with or without 200 nM PDB for 30 minutes, lysed into Laemmli sample buffer, separated by electrophoresis and analysed by immunoblotting with antibodies recognising p100 and p120. […] Thus the effect of PKC activation (via PDB) on p100/p120 mobility is a widespread phenomenon.
Brain endothelial cells from pig were incubated with or without lysophosphatidic acid (LPA; 10 μM for 30 minutes). The cells were extracted and protein analyzed by gel electrophoresis and immunblotting. Each lane represents protein extracted from an individual Transwell.
MDCK strain I and II cells were provided by Barry Gumbiner (memorial Sloan-Kettering Cancer Center, NY). LLC-PK1 and Caco-2 cells were obtained from the European Collection of Animal Cell Cultures. All cells were maintained at 37° C. under 5% CO2 in humidified air. MDCK strain I and II cells were maintained in MEM containing 10% FCS, 100 U/ml penicillin, 100 μg/ml streptomycin and 2 mM L-glutamine. Caco-2 cells were maintained in MEM containing 15% FCS, 1% non-essential amino acids and 1 μg/ml bovine insulin (Sigma I-6634). LLC-PK1 cells were grown in M199 (Gibco), 10% FCS, 100 U/ml penicillin, 100 μg/ml streptomycin and 2 mM L-glutamine. For whole cell lysate analysis, 10^5 cells were plated on 6.5 mm diameter, 0.4 μm, polycarbonate Transwell filters from Costar, in 0.25 ml of medium. The basolateral chamber contained 0.75 ml of medium. For immunoprecipitation, 5×10^5 cells were plated onto 24 mm Transwell filters, in 2 ml of medium, with 3 ml of medium in the lower chamber. Cells were used 4-7 days after plating. Tissue culture materials were from Gibco. Porcine brain endothelial cells were isolated and grown by modifications of a previously published procedure (Rubin et al., 1991). Brain capillary fragments were plated on dishes coated with rat tail collagen and human fibronectin. The cultures were fed every other day with growth medium composed of 50% astrocyte-conditioned medium and 50% Dulbecco's Modified Eagle Medium containing 10% plasma-derived serum, 125 μg/ml heparin, antibiotics and glutamine. They were incubated in a humidified atmosphere of 10% CO2 at 37° C. When the endothelial cells were approximately 50% confluent (after 4-6 days in culture), they were trypsinized and plated onto collagen-coated polycarbonate Transwell filters (6.5 mm diameter, 0.4 μm pore size, tissue culture treated, Costar Corp, Cambridge, Mass., U.S.A.) in the same medium (250 μl apically, 750 μl basolaterally). After 2-3 days on filters, the medium was switched to a 1:1 mixture of astrocyte-conditioned medium and a Dulbecco's Modified Eagle Medium-based, chemically defined medium (‘N2’, Rubin et al., 1991; Bottenstein and Sato, 1979). The final concentration of plasma-derived serum was 5%. Human umbilical vein endothelial cells were from Clonetics.
Whole cell lysates were prepared by rapidly replacing the culture medium in 6.5 mm with hot Laemmli sample buffer, followed by heating at 100° C. for 5 minutes. Immunoprecipitations were carried out at 4° C. Confluent monolayers of cells were washed rapidly with ice cold PBS (containing 0.9 mM CaCl2 and 0.5 mM MgCl2) before addition of 0.5 ml of the appropriate buffer. The filters were then gently scraped, and the lysate was removed and centrifuged at 14000× g. The supernatant was precleared with 10% (w/v) protein A-Sepharose in lysis buffer for 30-60 minutes. Appropriate primary antibodies were added to the lysate, and after 2-3 hours the immunecomplex was isolated, using rabbit anti-mouse secondary antibodies (Jackson Immunoresearch Labs Inc., West Grove, Pa.) and protein A-Sepharose. […]

SMILES | mobility of p100/p120 (0.4M mannitol) | time at which increase in p100/p120 mobility is seen (0.8M mannitol) | time for which increase in p100/p120 mobility is maintained (0.8M mannitol) | reversal of increase in p100/p120 mobility after removal (0.8M mannitol 5 minutes, then 30 minutes recovery in iso-osmotic medium) | earliest detection of increase in p100/p120 mobility (hyperosmolar mannitol, separate experiment, not shown) | mobility of p100/p120 (0.3M sorbitol)
OC[C@@H](O)[C@@H](O)[C@H](O)[C@H](O)CO [mannitol] | induces an increase in mobility | ≤ 5 min | 30 min | completely reversed | ≤ 30 s | –
OC[C@@H](O)[C@@H](O)[C@H](O)[C@@H](O)CO [sorbitol] | – | – | – | – | – | increase in mobility
